In patent US20110263693A1, “CELASTROL, GEDUNIN, AND DERIVATIVES THEREOF AS HSP90 INHIBITORS” (DANA-FARBER CANCER INSTITUTE, INC., priority 2006, published 2011):

Assays:
HSP90α = HSP90α (Homo sapiens, UniProt P07900); test: Geldanamycin competition assay (Cy3B-geldanamycin fluorescence polarization); format: binding; design: purchased Stressgen SPP776 / SPP-776; details: celastrol and gedunin at concentrations up to ~100 μM
in vitro = details: human

Structure (SMILES) | competition with Cy3B-geldanamycin for binding to the ATP-binding pocket of HSP90α (HSP90α) | viability (in vitro)
C=CCNC1=C2C[C@@H](C)C[C@H](OC)[C@H](O)[C@@H](C)/C=C(\C)[C@H](OC(N)=O)[C@@H](OC)/C=C\C=C(/C)C(=O)NC(=CC1=O)C2=O [17-AAG, 17-allylamino-geldanamycin, reference compound] | competed with geldanamycin binding at low concentrations | 
COP(=S)(OC)Oc1ccc([N+](=O)[O-])cc1 [methyl parathione] |  | 65.8%
